The chains behind the UniProt entries cited, without tags or fusion partners. Residues count along the entry.
UniProt P02768, 25-609: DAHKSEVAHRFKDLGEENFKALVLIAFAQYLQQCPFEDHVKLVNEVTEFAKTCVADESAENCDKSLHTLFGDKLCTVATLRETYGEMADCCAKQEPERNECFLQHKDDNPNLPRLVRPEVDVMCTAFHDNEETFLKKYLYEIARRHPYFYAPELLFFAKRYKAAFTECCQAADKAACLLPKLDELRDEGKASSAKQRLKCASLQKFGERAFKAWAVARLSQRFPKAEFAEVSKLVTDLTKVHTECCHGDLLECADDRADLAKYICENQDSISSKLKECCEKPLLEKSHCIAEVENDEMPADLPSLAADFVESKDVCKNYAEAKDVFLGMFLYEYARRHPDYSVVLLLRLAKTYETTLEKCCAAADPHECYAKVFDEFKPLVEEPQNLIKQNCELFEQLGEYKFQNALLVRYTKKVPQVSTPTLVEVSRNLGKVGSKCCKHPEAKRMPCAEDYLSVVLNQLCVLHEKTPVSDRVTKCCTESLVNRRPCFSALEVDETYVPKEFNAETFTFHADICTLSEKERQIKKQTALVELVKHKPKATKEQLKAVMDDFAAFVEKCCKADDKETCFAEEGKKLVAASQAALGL

According to PMC9135303, “Interaction of fungal lipase with potential phytotherapeutics” (PLoS ONE, 2022):

Key:
HSA = HSA (Homo sapiens, UniProt P02768); test: Intrinsic Trp214 fluorescence quenching of HSA (excitation 280 nm, ligand 50-400 uM, inner-filter corrected), 10 mM phosphate pH 7.4, 298 K; Ka from double-logarithmic plot.; format: binding; design: gene ALB; commercial (Sigma-Aldrich), dialyzed; conditions: read-out: Ka(M^-1) (converted)
Procedure: (§1) Lipase and HSA were dialyzed against KCl- buffer (pH 7) for 24 hrs. Stock solution of lipase was prepared in 10 mM phosphate buffer at pH 7.4 to obtain a particular concentration. […] These samples were incubated at 298.0 K for about 24 hrs.
(§2) Fluorescence spectra were recorded on Hitachi F-4010 spectrofluorometer equipped with circulating water bath to maintain the temperature of the cell. The quartz cell of path length 1.0 cm and band slit of 5.0 nm were used for all experiments. The excitation wavelength was 280 nm for lipase and HSA. Emission spectra were recorded from 300–450 nm for lipase and HSA protein.
(§3) Herein, the fluorescence intensities were corrected for absorption of the exciting light and reabsorption of the emitted light to decrease the inner filter effect according to the following equation [10] (Chi & Liu, 2011): Fcorr=Fobs10^Aex+Aem/2, Where Fcorr and Fobs are corrected and experimentally measured fluorescence intensities, respectively. […] The fluorescence intensity utilized in this paper was the corrected intensity.
The fluorescence emission spectra of HSA in the absence and the presence of increasing linalool concentrations (50–400 μM with 50 μM intervals) is shown as Fig 7A. […]
The plot of F0/F against [linalool] at 298K is given as S3A Fig. The values of ksv and kq could be calculated from the slope of curves. […]

[1] = biological target: T1, Human Serum Albumin (HSA) (Homo sapiens, UniProt P02768); test: Far-UV circular dichroism of HSA; conditions: 24 hours at 298.15 K, pH 7.4, native -17.76
T1 construct: purchased Sigma-Aldrich
Procedure: CD spectra were obtained over wavelength range of 200–250 nm on Jasco-1500 CD Spectrometer equipped with peltier type temperature controller. 0.1cm quartz cell were used to measure far UV CD spectrum. The concentration of protein used was 0.2 mg/ml (lipase) and 0.35 mg/ml (HSA). Each spectrum was scanned thrice and finally average of 3 was used to analyse the results.

[2] = biological target: T1, Human Serum Albumin (HSA); test: Fluorescence quenching of HSA (Stern-Volmer and double-logarithmic plots); format: binding
Procedure: as §1, §2, §3
The HSA were excited at 280nm and spectra were taken from 300nm to […].
The plot of F0/F against [linalool] at 298K is given as S3A Fig. The values of ksv and kq could be calculated from the slope of curves. The average lifetime of the fluorophore in the absence of the ligand as 6.38 × 10^−9 s for HSA [23]. […] Ka and ‘n’ were calculated from equation: Log[(F0–F)/F] = logKa + n log[linalool].

Cc1ccc(C(C)C)c(O)c1 [thymol]
Kd (HSA): 1.04 nM | MRE x 10^3 at 222nm (complex_400 μM) [1]: -23.56 | Kd [2]: ~10 nM | blue shift in the emission maximum of HSA [2]: 2 nm | n (number of binding site) ([2]; HSA): 2.41 | Ka (binding constant) ([2]; HSA, double-logarithmic plot): 9.6e+08 M⁻¹
